This data set can be described thus: in vivo. To be noted: mouse, iv.

Turning to `NC[C@@H]1CC[C@@H](N)[C@@H](O[C@H]2[C@H](O)[C@@H](O[C@H]3O[C@H](CO)[C@@H](O)[C@H](N)[C@H]3O)[C@H](N)C[C@@H]2N)O1` [DKB, 3',4'-dideoxykanamycin B, reference compound], the LD50 came to 80 mg/kg.

The LD50 is the dose at which mortality reaches 50%.
